Tests used:
human V2 receptor = human V2 receptor (Homo sapiens, UniProt P30518); assay: cAMP production test in V2 receptor expression cell; type: cell-based
Method: Pharmacological Test (1) Preparation of Human V2 Receptor Expression Cell
A DNA fragment containing a human V2 receptor code region was inserted into an expression vector of a vertebrate cell. The expression vector was genetically introduced into an animal cell to have the human V2 receptor express in the surface of the cell. Since the expression vector could express a neo gene which functions as a G418 resistance marker, it was cultured in a G418-containing medium, thereby selectively obtaining a human V2 receptor stable expression cell.
(2) cAMP Production Test in V2 Receptor Expression Cell
The human V2 receptor expression cell, which was prepared in the above described method, was recovered and resuspended into an incubation buffer (F-12 medium, 20 mM HEPES), and 5 μl of the cell was then divided into a 384-well plate with a density of 15,000 cells/well. 5 μl of a compound solution or an 8-AVP ((Arg^8)-vasopressin) solution, which was diluted with an assay buffer (F-12 medium, 20 mM HEPES, 1 mM IBMX), (total 10 μl/well) was added to each well (final concentration: 15,000 cells/well, 500 μM IBMX, 1% dimethyl sulfoxide). After incubation at room temperature for 30 minutes, a cAMP production amount was measured using a commercially available HTRF cAMP kit (Cisbio Inc.) according to the described protocol. Excel Fit was used in order to find EC50 and Emax values of the test compound. […]

The chains behind the UniProt entries cited, without tags or fusion partners.
UniProt P30518, whole entry: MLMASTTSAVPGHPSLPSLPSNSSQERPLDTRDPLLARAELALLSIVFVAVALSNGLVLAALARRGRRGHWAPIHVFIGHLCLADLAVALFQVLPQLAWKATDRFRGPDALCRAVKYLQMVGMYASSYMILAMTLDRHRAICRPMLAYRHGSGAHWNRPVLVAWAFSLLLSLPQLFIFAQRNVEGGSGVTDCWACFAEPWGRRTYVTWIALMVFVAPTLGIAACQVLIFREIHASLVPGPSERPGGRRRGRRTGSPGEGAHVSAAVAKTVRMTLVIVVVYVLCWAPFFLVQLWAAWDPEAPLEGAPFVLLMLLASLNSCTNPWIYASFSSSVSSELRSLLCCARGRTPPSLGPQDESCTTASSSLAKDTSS
UniProt P08684, whole entry: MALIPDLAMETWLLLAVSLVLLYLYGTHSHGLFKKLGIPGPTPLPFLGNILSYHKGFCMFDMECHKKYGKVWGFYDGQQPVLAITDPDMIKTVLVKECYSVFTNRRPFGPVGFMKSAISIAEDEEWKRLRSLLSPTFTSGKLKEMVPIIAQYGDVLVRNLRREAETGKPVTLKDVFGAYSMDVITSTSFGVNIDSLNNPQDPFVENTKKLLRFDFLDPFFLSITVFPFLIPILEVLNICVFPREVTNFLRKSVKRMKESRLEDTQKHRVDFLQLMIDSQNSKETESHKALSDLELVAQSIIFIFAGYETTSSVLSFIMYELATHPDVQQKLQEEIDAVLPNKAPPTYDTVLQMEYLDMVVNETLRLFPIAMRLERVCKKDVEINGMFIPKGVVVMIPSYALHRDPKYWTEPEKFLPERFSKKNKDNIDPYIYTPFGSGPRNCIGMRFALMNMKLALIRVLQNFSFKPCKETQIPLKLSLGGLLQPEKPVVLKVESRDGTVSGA
UniProt P11712, whole entry: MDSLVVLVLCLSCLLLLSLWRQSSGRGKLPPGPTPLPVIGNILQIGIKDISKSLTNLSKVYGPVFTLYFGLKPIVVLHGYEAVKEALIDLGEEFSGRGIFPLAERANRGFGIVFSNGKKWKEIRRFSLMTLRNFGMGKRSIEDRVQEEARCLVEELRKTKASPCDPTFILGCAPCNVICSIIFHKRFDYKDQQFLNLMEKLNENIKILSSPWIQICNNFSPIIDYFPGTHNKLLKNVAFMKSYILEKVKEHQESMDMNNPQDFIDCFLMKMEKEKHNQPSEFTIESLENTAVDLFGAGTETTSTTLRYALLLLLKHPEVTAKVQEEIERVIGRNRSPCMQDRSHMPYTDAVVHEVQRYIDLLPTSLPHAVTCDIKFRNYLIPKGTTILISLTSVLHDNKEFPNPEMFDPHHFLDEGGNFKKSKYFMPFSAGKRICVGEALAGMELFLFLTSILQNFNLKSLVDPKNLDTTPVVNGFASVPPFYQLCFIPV

Rat PK test = conditions: male Sprague-Dawley rat, caudal vein administration, 0.5 mg/kg
CYP3A4 = CYP3A4 (Homo sapiens, UniProt P08684); assay: Test of inhibition of cytochrome P450 (3A4) enzyme; conditions: read-out: IC50 CYP3A4; human liver microsome, midazolam 2.5 μM as substrate, test compound 0.21 to 50 μM, 37° C. 10 minutes
CYP2C9 = CYP2C9 (Homo sapiens, UniProt P11712); assay: Test of inhibition of cytochrome P450 (2C9) enzyme; conditions: read-out: IC50 CYP2C9; human liver microsome, sulfaphenazole 10 μM as substrate, test compound 0.21 to 50 μM, 37° C. 10 minutes

Cc1ccn(-c2ccc(C(=O)N3CCC(C)(C(=O)N[C@@H](C)CO)Cc4ccccc43)c(C)c2)n1 (stereo partly shown)
EC50 (human V2 receptor; human V2 receptor expression cell, 30 minutes at room temperature, HTRF cAMP kit): 0.0028 µM | Emax (human V2 receptor; maximum reaction by 8-AVP assumed to be 100%): 102% | AUC (Rat PK test; plasma): 360 ng·h/mL | Vdss (Rat PK test; CLp multiplied by MRT): 1.22 L/kg | CLp (Rat PK test; administration amount divided by AUC0-∞): 23.17 mL/min/kg | IC50 (CYP3A4): > 50 µM | IC50 (CYP2C9): > 50 µM
